## Apparent affinities of Ab-14 variants for a coronavirus HR2 peptide

Reference: Li et al. 2023, doi:10.1038/s41467-023-39022-2. File: FLAb, binding data.

Target peptide (SARS-CoV-2 spike, HR2 region): PDVDLGDISGINAS

Ab-14 is the parent antibody, in scFv form: VH, then a (GGGGS)3 linker, then VL. The light chain is unchanged in all variants.
VH: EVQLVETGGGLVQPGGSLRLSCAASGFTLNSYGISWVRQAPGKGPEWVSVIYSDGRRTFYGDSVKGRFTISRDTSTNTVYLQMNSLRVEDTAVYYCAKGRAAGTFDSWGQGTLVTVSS
VL: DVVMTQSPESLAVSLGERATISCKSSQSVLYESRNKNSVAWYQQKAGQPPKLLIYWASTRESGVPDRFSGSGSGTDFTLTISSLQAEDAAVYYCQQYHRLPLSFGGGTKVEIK

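The parent was found by panning a naive human phage display library on the peptide. These sequences belong to a second round, designed from the earlier measurements on random variants of the parent. Their group label is 14H_GP_Gibbs (GP: Gaussian process model; Gibbs: Gibbs sampling; a sequence that several methods proposed may carry one label only). Affinity was read by AlphaSeq, a pooled yeast mating assay with surface-displayed partners. Pairs that bind mate more often; barcode pairs of the diploids are counted by sequencing. Read counts were normalised to the haploid input and turned into Kd by a linear fit to BCL2-family pairs of known affinity, for each replicate. There are six technical replicates.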

The parent's heavy chain CDRs are GFTLNSYGIS, VIYSDGRRTFYGDSVK, GRAAGTFDS; each variant's own CDRs replace them letter for letter. Affinities are written as log10 Kd with Kd in nM; a lower number is a better binder. "nd" marks a missing value. The strain was present, yet no cells mated with the target were sequenced in that replicate, which points to weak or no binding.

| CDR-H1 | CDR-H2 | CDR-H3 | replicates, log10 nM | signal with controls |
|---|---|---|---|---|
| GFSLNSYGIS | VIYSDGRRTFYVDMVK | GQTAGTFDS | nd / nd / nd / nd / nd / nd | 0 of 18 |
| GFTLNSYGIS | VIYSDGKRTFYGDRVK | GQAAGTFDL | nd / 1.31 / nd / 1.26 / nd / 1.61 | 0 of 18 |
| GFELNDYGIS | VIYSDGRRTFYGDSVK | GRHAGTFDS | nd / nd / 0.60 / 2.41 / 1.36 / 0.52 | 0 of 18 |
| GFELNSYGIS | VIYSDGRRTFYGDKVK | GKTAGTFDS | 2.32 / 0.47 / 0.16 / 2.80 / 0.69 / 0.81 | 0 of 18 |
| GFFLNSYGIS | VIYSDGRRTFYGDSVK | GQEAGTFDT | nd / nd / nd / 0.95 / nd / nd | 0 of 18 |
| GFSLNDYGIS | VIYSDGRRTFYGDSVK | GRMAGTFDA | 0.11 / -0.23 / 0.35 / 0.17 / 0.29 / 0.58 | 0 of 18 |
| MFSLNEYGIS | VIYSDGRRTYYGDSVK | GRAAGTFDS | nd / 1.73 / 2.29 / 1.66 / 1.91 / 3.34 | 0 of 18 |
| KFTLNSYGIS | VIYSDGRRTFYGDSVK | GQTAGTFDV | nd / nd / 1.50 / nd / nd / nd | 0 of 18 |
| GFTLNSYGIS | VIYSDGQRTFYGDSVK | GQTAGTFDK | nd / nd / nd / nd / nd / nd | 0 of 18 |
| GFSLNTYGIS | VIYSDGRRTFYGDRVK | GEAAGTFDS | 0.62 / 0.66 / 1.11 / 0.63 / 0.64 / 0.87 | 1 of 18 (2.02) |
| GFQLNSYGIS | VIYSDGRRTFYIDSVK | GNVAGTFDS | nd / nd / nd / 0.46 / nd / nd | 0 of 18 |
| GFHLNSYGIS | VIYSDGRRTFYIDSVK | GHEAGTFDS | 1.61 / 0.71 / 0.89 / 0.58 / 0.90 / 1.36 | 0 of 18 |
| GFNLNEYGIS | VIYSDGRRTMYGDSVK | GRTAGTFDS | 0.85 / -0.68 / -0.24 / -0.41 / -0.88 / 0.61 | 1 of 18 (1.46) |
| GFTLNSYGIS | VIYSDGRRTFYGDSVK | GQTAGTFDM | 1.07 / 1.49 / 1.72 / 1.24 / 1.34 / 2.13 | 0 of 18 |
| GFSLNEYGIS | VIYSDGRRTFYSDSVK | GRLAGTFDS | nd / nd / nd / nd / nd / nd | 0 of 18 |
| GFTLNSYGIS | VIYSDGLRTFYTDSVK | GKAAGTFDS | 1.47 / 0.84 / 0.66 / 0.29 / 2.29 / 1.92 | 0 of 18 |
| GFSLNSYGIS | VIYSDGRRTFYGDNVK | GQAAGTFDA | 0.77 / 0.14 / 0.61 / nd / 1.37 / 0.94 | 0 of 18 |
| GFSLNSYGIS | VIYADGRRTFYQDSVK | GEAAGTFDS | -0.49 / -0.49 / -0.41 / -0.66 / -0.55 / -0.12 | 0 of 18 |
| GFSLNSYGIS | VIYSDGRRTFYADHVK | GNAAGTFDK | nd / nd / nd / nd / nd / nd | 1 of 18 (0.63) |
| GFTLNSYGIS | VIYSDGMRTFYSDQVK | GQTAGTFDS | nd / nd / nd / nd / 2.77 / 1.44 | 0 of 18 |
| GFALNEYGIS | VIYSDGRRTFYGDSVK | GQTAGTFDL | 1.28 / 0.39 / 0.81 / 0.46 / 0.20 / 0.41 | 1 of 18 (2.05) |
| GFSLNSYGIS | VIYSDGRRTFYMDSVK | GNVAGTFDS | 1.74 / -0.02 / 0.33 / 0.52 / 0.20 / 0.54 | 0 of 18 |
| GFTLNSYGIS | VIYSDGKRTFYADSVK | GHAAGTFDL | 0.71 / 0.86 / 0.48 / 0.62 / 1.57 / 1.38 | 0 of 18 |
| GFELNSYGIS | VIYSDGRRTFYGDSVK | GHAAGTFDN | 1.67 / nd / nd / nd / nd / 1.68 | 0 of 18 |
| GFTLNSYGIS | VIYSDGKRTFYTDSVK | GQTAGTFDS | 1.20 / 0.17 / 0.08 / 0.60 / 0.32 / 0.28 | 0 of 18 |
| GFDLNSYGIS | VIYSDGRRTFYSDSVK | GKAAGTFDW | 0.51 / 0.83 / 1.10 / 0.95 / 0.81 / 0.95 | 0 of 18 |
| GFELNSYGIS | VIYSDGRRTFYADSVK | GQTAGTFDA | 0.74 / 0.11 / 0.33 / 0.40 / 0.32 / 0.86 | 0 of 18 |
| MFDLNSYGIS | VIYSDGRRTFYGDSVK | GREAGTFDQ | nd / nd / nd / nd / 1.07 / 0.66 | 0 of 18 |
| HFSLNSYGIS | VIYSDGRRTAYGDSVK | GRTAGTFDS | 0.65 / 0.15 / 0.52 / 1.07 / nd / 0.68 | 0 of 18 |
| GFSLNEYGIS | VIYSDGRRTFYGDSVK | GRTAGTFDI | 0.22 / 0.55 / -0.15 / 0.33 / 0.21 / -0.08 | 0 of 18 |
| GFGLNSYGIS | VIYSDGRRTFYQDSVK | GKAAGTFDS | 1.61 / nd / 0.89 / nd / nd / 1.52 | 0 of 18 |
| KFNLNSYGIS | VIYSDGRRTFYDDSVK | GQTAGTFDS | nd / nd / nd / nd / nd / nd | 0 of 18 |
| GFWLNSYGIS | VIYSDGRRTFYTDSVK | GQTAGTFDS | 1.67 / 1.63 / 1.99 / 1.70 / 1.91 / 1.80 | 0 of 18 |
| GFMLNSYGIS | VIYSDGRRTFYGDSVK | GQTAGTFDA | 0.09 / 0.44 / 0.25 / 0.20 / 0.23 / 0.47 | 0 of 18 |
| GFELNEYGIS | VIYSDGRRTFYGDSVK | GKSAGTFDS | -0.21 / 0.07 / 0.49 / 0.68 / 0.03 / 0.76 | 0 of 18 |
| GFNLNSYGIS | VIYSDGRRTFYADPVK | GQEAGTFDS | 0.13 / 0.06 / -0.03 / 0.16 / 0.42 / 0.16 | 1 of 18 (1.89) |
| GFSLNSYGIS | VIYSDGRRTFYVDDVK | GRNAGTFDS | 1.31 / nd / nd / 1.51 / 1.12 / 0.69 | 0 of 18 |
| GFTLNEYGIS | VIYSDGRRTFYADSVK | GRNAGTFDT | -0.24 / -0.37 / -0.34 / -0.19 / -0.36 / -0.08 | 1 of 18 (2.45) |
| GFELNSYGIS | VIYSDGRRTAYGDNVK | GRNAGTFDS | 0.57 / 0.33 / 0.24 / 0.06 / 0.44 / 0.34 | 0 of 18 |
| KFDLNMYGIS | VIYSDGRRTFYGDSVK | GRTAGTFDS | 1.05 / 0.75 / 1.38 / 0.81 / 0.75 / 0.49 | 0 of 18 |
| GFELNSYGIS | VIYSDGRRTFYADMVK | GKAAGTFDV | nd / 1.98 / 1.87 / nd / 1.71 / nd | 0 of 18 |
| GFDLNSYGIS | VIYSDGMRTFYKDSVK | GRAAGTFDS | 1.01 / 0.71 / 0.12 / 0.02 / 0.04 / -0.07 | 0 of 18 |
| GFKLNSYGIS | VIYSDGRRTFYGDSVK | GEAAGTFDT | 1.20 / 1.59 / 1.29 / 0.78 / 1.37 / 1.91 | 2 of 18 (2.41) |
| MFSLNSYGIS | VIYSDGRRTFYGDSVK | GQEAGTFDT | nd / nd / nd / nd / nd / nd | 0 of 18 |
| GFELNSYGIS | VIYSDGRRTFYGDAVK | GQTAGTFDS | 1.28 / 0.56 / 0.45 / -0.01 / 0.66 / 0.42 | 1 of 18 (1.06) |
| GFNLNSYGIS | VIYSDGRRTFYGDDVK | GSEAGTFDS | 0.38 / 0.26 / 0.43 / 0.40 / -0.10 / 0.23 | 0 of 18 |
| GFNLNSYGIS | VIYSDGRRTFYGDKVK | GRVAGTFDS | 0.34 / 0.38 / 0.72 / 1.07 / 1.84 / 1.74 | 0 of 18 |
| GFDLNSYGIS | VIYSDGRRTFYIDKVK | GQAAGTFDS | 1.03 / 1.30 / 1.84 / 1.18 / 0.82 / 3.02 | 0 of 18 |
| GFELNSYGIS | VIYSDGRRTAYGDHVK | GRNAGTFDS | 0.66 / 0.68 / 0.55 / 0.79 / 0.38 / 0.88 | 0 of 18 |
| GFDLNSYGIS | VIYSDGRRTFYADSVK | GKAAGKFDS | nd / nd / nd / nd / nd / nd | 0 of 18 |
| GFTLNSYGIS | VIYSDGRRTFYADNVK | GQAAGTFDT | nd / 1.75 / 0.43 / 0.93 / 1.48 / 1.40 | 0 of 18 |
| GFTLNSYGIS | VIYSDGRRTFYSDQVK | GKAAGTFDT | 1.17 / 0.50 / 1.14 / 0.53 / 0.69 / 0.75 | 0 of 18 |

Again, the first 7 entries without any signal:

CDR-H1,CDR-H2,CDR-H3,"replicates, log10 nM",signal with controls
GFSLNSYGIS,VIYSDGRRTFYVDMVK,GQTAGTFDS,nd / nd / nd / nd / nd / nd,0 of 18
GFTLNSYGIS,VIYSDGQRTFYGDSVK,GQTAGTFDK,nd / nd / nd / nd / nd / nd,0 of 18
GFSLNEYGIS,VIYSDGRRTFYSDSVK,GRLAGTFDS,nd / nd / nd / nd / nd / nd,0 of 18
GFSLNSYGIS,VIYSDGRRTFYADHVK,GNAAGTFDK,nd / nd / nd / nd / nd / nd,1 of 18 (0.63)
KFNLNSYGIS,VIYSDGRRTFYDDSVK,GQTAGTFDS,nd / nd / nd / nd / nd / nd,0 of 18
MFSLNSYGIS,VIYSDGRRTFYGDSVK,GQEAGTFDT,nd / nd / nd / nd / nd / nd,0 of 18
GFDLNSYGIS,VIYSDGRRTFYADSVK,GKAAGKFDS,nd / nd / nd / nd / nd / nd,0 of 18

The parent sequence was in this pool as ten entries: three were never detected, three once, and four in most replicates, with averages from 0.34 to 2.37. A sequence measured in both rounds can read differently, since the two assays cover different ranges. Three control strains display no target. For all heavy chain designs, 1% of the pairings with them gave a signal, with a median of 2.08 and one signal in twenty below 0.84, so weak values seen in few replicates may be background. Also given: how often the same scFv was detected with the empty control strains, with their mean in brackets. The authors averaged sequences with at least three values out of six and counted those with two or fewer as poor binders.